# Calls of active or inactive are those of the source. No cut-off for these calls is given here.
# Protein sequences, listed by entry. Tags and fused reporters are not part of them. Lines headed by an entry give the natural chain unless they say otherwise; changes in a name come on top.
# UniProt P49336: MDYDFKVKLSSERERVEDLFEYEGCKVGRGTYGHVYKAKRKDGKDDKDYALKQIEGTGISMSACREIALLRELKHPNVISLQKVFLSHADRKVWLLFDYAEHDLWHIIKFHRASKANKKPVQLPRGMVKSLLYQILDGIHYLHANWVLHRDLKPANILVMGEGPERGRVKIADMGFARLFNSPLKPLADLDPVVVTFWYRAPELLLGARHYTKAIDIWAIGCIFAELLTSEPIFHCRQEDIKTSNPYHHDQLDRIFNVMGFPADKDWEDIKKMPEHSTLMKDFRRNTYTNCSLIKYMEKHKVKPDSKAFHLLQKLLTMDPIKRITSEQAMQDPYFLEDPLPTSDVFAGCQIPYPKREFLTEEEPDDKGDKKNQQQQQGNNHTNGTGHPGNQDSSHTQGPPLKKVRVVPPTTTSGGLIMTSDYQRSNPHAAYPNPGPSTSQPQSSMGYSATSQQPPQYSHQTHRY
# UniProt Q9BWU1: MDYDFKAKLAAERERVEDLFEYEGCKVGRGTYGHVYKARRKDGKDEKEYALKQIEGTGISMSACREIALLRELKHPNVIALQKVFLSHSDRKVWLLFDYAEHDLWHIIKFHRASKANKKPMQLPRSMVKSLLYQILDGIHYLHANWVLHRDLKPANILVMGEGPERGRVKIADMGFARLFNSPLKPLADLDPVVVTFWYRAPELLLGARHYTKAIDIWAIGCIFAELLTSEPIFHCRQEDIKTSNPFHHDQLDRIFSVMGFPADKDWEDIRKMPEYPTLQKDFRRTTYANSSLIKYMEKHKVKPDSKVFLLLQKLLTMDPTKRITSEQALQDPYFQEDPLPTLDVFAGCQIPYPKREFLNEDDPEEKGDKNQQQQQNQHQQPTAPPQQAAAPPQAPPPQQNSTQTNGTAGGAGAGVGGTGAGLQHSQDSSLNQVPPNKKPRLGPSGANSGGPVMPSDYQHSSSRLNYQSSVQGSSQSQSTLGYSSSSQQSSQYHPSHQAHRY
# How the values were obtained:
# [1] = molecular target: Cyclin-dependent kinase 8 (Homo sapiens) (UniProt P49336); assay: Inhibition of CDK8 (unknown origin) assessed as residual ligand binding level at 0.5 uM by kinome scan assay relative to control
# [2] = molecular target: Cyclin-dependent kinase 19 (Homo sapiens) (UniProt Q9BWU1); assay: Inhibition of CDK19(CDK11) (unknown origin) assessed as residual ligand binding level at 0.5 uM by kinome scan assay relative to control
smiles,measurement,setting,value
CN(C)C(=O)Cc1ccc(N2CCCN(c3ccnc4sc(C(N)=O)c(N)c34)CC2)cc1,inhibition,[1],Active
same,inhibition,[2],Active

# Source: ChEMBL document CHEMBL4742393, “Compounds for treatment of hypoproliferative disorders” (2019)
